These results are taken from patent US9714249B2 (Novartis AG, priority 2013, dated 2017).

The chains behind the UniProt entries cited, without tags or fusion partners.
UniProt Q86Y26, whole entry: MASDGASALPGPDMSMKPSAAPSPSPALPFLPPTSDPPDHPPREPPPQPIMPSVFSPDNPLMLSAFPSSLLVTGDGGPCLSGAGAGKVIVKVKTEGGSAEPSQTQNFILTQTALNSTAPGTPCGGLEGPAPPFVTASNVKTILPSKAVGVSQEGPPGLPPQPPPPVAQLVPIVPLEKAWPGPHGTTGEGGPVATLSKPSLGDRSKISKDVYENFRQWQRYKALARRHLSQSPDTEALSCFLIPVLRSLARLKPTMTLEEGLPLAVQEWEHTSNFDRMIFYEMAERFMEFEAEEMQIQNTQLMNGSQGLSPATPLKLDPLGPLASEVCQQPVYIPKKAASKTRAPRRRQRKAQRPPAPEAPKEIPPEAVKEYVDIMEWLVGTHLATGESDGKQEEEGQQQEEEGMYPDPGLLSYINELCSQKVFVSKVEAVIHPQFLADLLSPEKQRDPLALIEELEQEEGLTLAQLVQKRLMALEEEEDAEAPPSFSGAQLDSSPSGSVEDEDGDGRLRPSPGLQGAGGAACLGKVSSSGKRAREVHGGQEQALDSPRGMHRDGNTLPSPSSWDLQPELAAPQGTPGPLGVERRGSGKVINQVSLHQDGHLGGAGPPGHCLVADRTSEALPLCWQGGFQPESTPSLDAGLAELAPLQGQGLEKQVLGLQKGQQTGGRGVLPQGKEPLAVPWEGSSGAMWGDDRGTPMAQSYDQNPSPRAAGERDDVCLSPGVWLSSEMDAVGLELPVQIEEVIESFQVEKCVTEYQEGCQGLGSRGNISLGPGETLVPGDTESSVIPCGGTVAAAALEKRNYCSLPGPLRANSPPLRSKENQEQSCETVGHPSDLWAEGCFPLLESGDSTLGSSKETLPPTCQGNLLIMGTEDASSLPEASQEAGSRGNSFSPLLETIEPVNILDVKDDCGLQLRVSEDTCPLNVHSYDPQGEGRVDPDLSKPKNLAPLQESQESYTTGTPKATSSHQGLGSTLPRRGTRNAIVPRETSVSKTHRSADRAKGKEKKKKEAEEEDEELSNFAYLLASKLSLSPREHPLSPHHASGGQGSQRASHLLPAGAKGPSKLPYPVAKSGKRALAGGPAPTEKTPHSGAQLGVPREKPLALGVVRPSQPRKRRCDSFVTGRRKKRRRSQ

Usually GI50 stands for the concentration giving 50% growth inhibition. One may read the pIC50 as the IC50 on a negative log10 scale, so that one unit is a factor of ten.

The subject of assay [1] is MV-4-11 cells. The experiment in a line: Cell growth inhibition assay (CellTiter-Glo), MV-4-11. Background: Cellular ATP, detected with luciferase, serves as a proxy for viable cell number.
Assay [2] deals with BRD4-NUT-fusion (Homo sapiens (Human), UniProt O60885+Q86Y26). The experiment in a line: Nut-foci formation assay (HCS) in HCC2494 NUT midline carcinoma cells. The format is cell-based. To be noted: read-out: HCS Brd4-NUT IC50, 24 hours, nuclear BRD4-NUT foci, immunofluorescence.
The test system of assay [3] is K-562 cells. The experiment in a line: Cell growth inhibition assay (CellTiter-Glo), K-562.
The test system of assay [4] is THP-1 cells. The experiment in a line: Cell growth inhibition assay (CellTiter-Glo), THP-1.

pIC50: −log10 of the molar value.

With `COc1ncccc1-n1nc(C)c2c1C(c1ccc(Cl)cc1)N(c1cc(Cl)c(=O)n(C)c1)C2=O` (stereo not shown), the “MV-4-11 TGI” value in assay [1] (MV-4-11, 4 days, total growth inhibition) amounted to 0.121 µM. The 50% growth inhibitory concentration (GI50) in assay [1] (read-out: MV-4-11 GI50, MV-4-11, 4 days, half-maximal growth inhibition) worked out at 0.0877 µM; in assay [3] (read-out: K-562 GI50, K-562, 4 days, half-maximal growth inhibition), 0.719 µM; in assay [4] (read-out: THP-1 GI50, THP-1, 4 days, half-maximal growth inhibition), 0.204 µM. For the same molecule, the pIC50 in assay [2] was 7.22. The “K-562 TGI” value in assay [3] (K-562, 4 days, total growth inhibition) was greater than 10 µM. For the same molecule, the “THP-1 TGI” value in assay [4] (THP-1, 4 days, total growth inhibition) was 0.384 µM.
